Measured values as given in ChEMBL document CHEMBL1136008, “Novel tricyclic poly(ADP-ribose) polymerase-1 inhibitors with potent anticancer chemopotentiating activity: design, synthesis, and X-ray cocrystal structure” (J Med Chem, 2002).

Sequences of proteins named here, by UniProt entry; tags and fusion partners are left off.
UniProt P09874, whole entry: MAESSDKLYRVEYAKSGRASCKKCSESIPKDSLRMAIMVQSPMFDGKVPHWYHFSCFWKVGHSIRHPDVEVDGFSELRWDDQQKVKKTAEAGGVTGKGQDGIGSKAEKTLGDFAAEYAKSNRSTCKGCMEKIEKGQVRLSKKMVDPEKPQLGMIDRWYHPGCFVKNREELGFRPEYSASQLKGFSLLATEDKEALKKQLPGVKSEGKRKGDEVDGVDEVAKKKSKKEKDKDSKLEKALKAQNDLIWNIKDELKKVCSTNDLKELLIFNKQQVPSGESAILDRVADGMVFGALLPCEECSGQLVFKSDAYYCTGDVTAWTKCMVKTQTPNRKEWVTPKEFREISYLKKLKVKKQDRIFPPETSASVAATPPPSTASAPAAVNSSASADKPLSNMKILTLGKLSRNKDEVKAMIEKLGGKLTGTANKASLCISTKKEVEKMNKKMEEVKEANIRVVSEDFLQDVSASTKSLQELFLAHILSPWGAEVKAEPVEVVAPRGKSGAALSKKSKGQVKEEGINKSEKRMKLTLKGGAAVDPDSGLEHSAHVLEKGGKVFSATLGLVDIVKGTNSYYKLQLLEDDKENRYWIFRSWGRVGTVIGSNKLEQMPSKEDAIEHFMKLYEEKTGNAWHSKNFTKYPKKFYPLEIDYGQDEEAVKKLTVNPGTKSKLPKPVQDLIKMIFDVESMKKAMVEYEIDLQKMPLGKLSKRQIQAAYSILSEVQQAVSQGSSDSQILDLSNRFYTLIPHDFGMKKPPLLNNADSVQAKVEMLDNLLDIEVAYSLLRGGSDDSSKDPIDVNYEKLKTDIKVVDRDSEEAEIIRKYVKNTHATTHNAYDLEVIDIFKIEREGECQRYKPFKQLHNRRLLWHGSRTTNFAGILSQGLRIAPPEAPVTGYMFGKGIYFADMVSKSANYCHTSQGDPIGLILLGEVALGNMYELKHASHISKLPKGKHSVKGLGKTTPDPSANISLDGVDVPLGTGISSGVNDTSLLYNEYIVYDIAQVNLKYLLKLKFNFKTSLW

Target: Poly [ADP-ribose] polymerase 1 (Homo sapiens, UniProt P09874)

Row | pKi | Structure (SMILES)
1 | 8.15 | Cn1c(-c2ccccc2)c2c3c(cccc31)C(=O)NCC2
2 | 8.10 | O=C1NCCc2c(-c3ccccc3Cl)[nH]c3cccc1c23

pKi: −log10 of the molar value.
